Drawing on ChEMBL document CHEMBL3639135, “Dihydropyrimidin-2(1H)-one compounds as S-nitrosoglutathione reductase inhibitors” (2014), this text covers IC50 for 8 compounds.

Amino acid sequences for entries named in this document (tags omitted). A change or cut given only in a name is not applied to a line headed by its entry.
UniProt P11766: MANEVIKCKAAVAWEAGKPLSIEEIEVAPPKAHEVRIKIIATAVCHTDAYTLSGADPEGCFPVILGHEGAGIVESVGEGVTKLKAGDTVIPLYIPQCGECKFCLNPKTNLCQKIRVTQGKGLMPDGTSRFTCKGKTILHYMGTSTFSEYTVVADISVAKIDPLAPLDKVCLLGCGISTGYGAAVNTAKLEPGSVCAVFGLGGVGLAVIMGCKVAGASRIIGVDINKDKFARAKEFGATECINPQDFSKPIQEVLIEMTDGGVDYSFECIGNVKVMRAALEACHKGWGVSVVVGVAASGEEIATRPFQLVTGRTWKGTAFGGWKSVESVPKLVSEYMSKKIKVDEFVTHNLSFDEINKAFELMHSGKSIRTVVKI

The assay deals with Alcohol dehydrogenase class-3 (Homo sapiens, UniProt P11766).
Compound `CCOc1cc([C@H]2NC(=O)N=C(c3ccccc3)C2c2ccccc2)cc([N+](=O)[O-])c1O` (stereo partly drawn) yielded an IC50 of 19700 nM.

Regarding `CCOc1cc([C@H]2NC(=O)N=C(c3ccccc3)C2c2ccsc2)cc([N+](=O)[O-])c1O` (stereo partly drawn), the IC50 amounted to 1820 nM. This IC50 is about 11-fold lower than that of the compound before.

On to `CCOc1cc([C@@H]2NC(=O)N=C(c3ccccc3)C2c2ccccc2)cc([N+](=O)[O-])c1O` (stereo partly drawn), for which the IC50 is 11 nM.

With `CCOc1cc(C2=NC(=O)NC(c3cccnc3)C2c2ccsc2)cc([N+](=O)[O-])c1O` (stereo not drawn), the half-inhibitory concentration (IC50) turned out to be 1900 nM.

`CCOc1cc(C2NC(=O)N=C(c3ccccc3)C2c2ccccc2)cc([N+](=O)[O-])c1O` (stereo not drawn) yielded an IC50 of 29 nM.

In the case of `CCOc1cc(C2NC(=O)N=C(c3ccccc3)C2c2ccsc2)cc([N+](=O)[O-])c1O` (stereo not drawn), the IC50 was found to be 19 nM.

As to `CCOc1cc(C2=NC(=O)NC(c3ccn(C)n3)C2c2ccsc2)cc([N+](=O)[O-])c1O` (stereo not drawn), the IC50 was determined as 35 nM.

Regarding `CCOc1cc([C@@H]2NC(=O)N=C(c3ccccc3)C2c2ccsc2)cc([N+](=O)[O-])c1O` (stereo partly drawn), the IC50 came out at 18 nM.

Usually IC50 stands for the concentration that gives 50% inhibition.
